Laboratory results taken from ChEMBL document CHEMBL4392822, “HSP60/10 chaperonin systems are inhibited by a variety of approved drugs, natural products, and known bioactive molecules” (Bioorg Med Chem Lett, 2019).

Protein sequences, listed by entry. Tags and fused reporters are not part of them.
UniProt P10809, whole entry: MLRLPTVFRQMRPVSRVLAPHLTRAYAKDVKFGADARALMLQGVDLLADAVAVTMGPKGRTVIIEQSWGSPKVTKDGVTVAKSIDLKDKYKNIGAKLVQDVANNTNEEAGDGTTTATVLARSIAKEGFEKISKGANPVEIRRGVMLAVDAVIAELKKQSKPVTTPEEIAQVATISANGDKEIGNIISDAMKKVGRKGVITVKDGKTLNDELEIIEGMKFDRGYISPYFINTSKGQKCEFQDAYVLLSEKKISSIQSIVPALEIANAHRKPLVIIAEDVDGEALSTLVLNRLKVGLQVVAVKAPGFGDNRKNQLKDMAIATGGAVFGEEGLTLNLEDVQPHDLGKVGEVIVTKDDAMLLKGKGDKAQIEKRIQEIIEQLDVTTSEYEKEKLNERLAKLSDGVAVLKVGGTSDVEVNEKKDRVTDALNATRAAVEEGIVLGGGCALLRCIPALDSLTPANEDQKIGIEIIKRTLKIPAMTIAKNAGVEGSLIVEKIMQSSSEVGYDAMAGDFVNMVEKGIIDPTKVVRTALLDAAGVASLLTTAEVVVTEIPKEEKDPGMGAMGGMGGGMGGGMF
UniProt P0A6F5, whole entry, looked up: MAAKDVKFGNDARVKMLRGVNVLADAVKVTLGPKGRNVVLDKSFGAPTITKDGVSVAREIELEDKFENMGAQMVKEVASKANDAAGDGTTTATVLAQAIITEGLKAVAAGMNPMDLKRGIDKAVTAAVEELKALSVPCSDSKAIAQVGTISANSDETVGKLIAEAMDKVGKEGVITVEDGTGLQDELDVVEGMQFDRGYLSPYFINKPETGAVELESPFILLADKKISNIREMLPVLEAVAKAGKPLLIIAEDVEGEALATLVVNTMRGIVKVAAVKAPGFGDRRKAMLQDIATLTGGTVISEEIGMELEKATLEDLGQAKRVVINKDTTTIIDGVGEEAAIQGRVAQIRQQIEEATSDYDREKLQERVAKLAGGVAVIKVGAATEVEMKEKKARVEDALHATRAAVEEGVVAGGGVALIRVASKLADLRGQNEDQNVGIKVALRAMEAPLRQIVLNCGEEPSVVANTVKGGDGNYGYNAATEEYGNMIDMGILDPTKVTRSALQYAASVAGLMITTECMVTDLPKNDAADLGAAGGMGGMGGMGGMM

Key:
HSP60/HSP10 = HSP60/HSP10 (Homo sapiens, UniProt P10809);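 also: His-tagged human HSP60 with HSP10 refolding denatured MDH, read as MDH activity on mesoxalate by malachite green spectrometry, inhibition of refolding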
E. coli GroEL/ES [1] = biological target: T1, E. coli GroEL/ES (Escherichia coli, UniProt P0A6F5)
[2] = biological target: T2, Thiosulfate sulfurtransferase (Homo sapiens, UniProt Q16762); assay type: ADME;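 also: native rhodanese of unspecified species, enzyme activity read after 45 min by spectrophotometric detection of Fe(SCN)3 colour, IC50 reflects activity reduction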
T2 sequence (Q16762 whole entry): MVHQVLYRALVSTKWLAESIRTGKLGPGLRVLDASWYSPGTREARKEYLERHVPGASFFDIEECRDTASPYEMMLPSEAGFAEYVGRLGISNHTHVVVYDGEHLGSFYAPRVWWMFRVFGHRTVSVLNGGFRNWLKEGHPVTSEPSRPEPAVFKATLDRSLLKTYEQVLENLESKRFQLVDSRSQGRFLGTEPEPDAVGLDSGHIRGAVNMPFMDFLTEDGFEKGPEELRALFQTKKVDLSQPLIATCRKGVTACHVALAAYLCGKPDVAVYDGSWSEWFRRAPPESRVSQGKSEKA

E. coli GroEL/ES [3] = biological target: T1, E. coli GroEL/ES; remark: listed apart in the source
Chaperonin GroEL = Chaperonin GroEL (Escherichia coli (strain K12), UniProt P0A6F5);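 also: inhibition of GroEL ATPase activity with ATP as substrate, 60 min incubation, spectrometric read-out, recombinant enzyme produced in Escherichia coli DH5alpha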

Structure (SMILES)	IC50 (HSP60/HSP10) [µM]	IC50 (E. coli GroEL/ES [1]) [µM]	further results
Nc1ccc(O)c(C(=O)O)c1 [MESALAMINE]	12	–	–
CC1=NCCc2c1[nH]c1cc(O)ccc21 [HARMALOL]	–	16	–
O=C1C=C2CC3(O)COc4c(ccc(O)c4O)C3=C2C=C1O (configuration not stated) [HEMATEIN]	–	1.2	–
CC1=C(/C=C/C(C)=C/C=C/C(C)=C/C(=O)O)C(C)(C)CCC1 [TRETINOIN]	–	–	IC50 [2]: 91 µM
O=C(O)c1ccccc1-c1c2cc(I)c(=O)c(I)c-2oc2c(I)c(O)c(I)cc12	2.9	1.2	IC50 (E. coli GroEL/ES [3]): 0.5 µM; IC50 (Chaperonin GroEL): 222 µM
C=C(NC(=O)C(=C)NC(=O)c1csc(C2=N[C@@H]3c4csc(n4)[C@H]4NC(=O)c5csc(n5)[C@H]([C@](C)(O)[C@@H](C)O)NC(=O)[C@H]5CSC(=N5)/C(=C/C)NC(=O)[C@H]([C@@H](C)O)NC(=O)c5csc(n5)[C@]3(CC2)NC(=O)[C@H](C)NC(=O)C(=C)NC(=O)[C@H](C)NC(=O)[C@H]([C@@H](C)CC)N[C@@H]2C=Cc3c([C@H](C)O)cc(nc3[C@H]2O)C(=O)O[C@@H]4C)n1)C(N)=O [THIOSTREPTON]	–	16	–
C[C@H](CCC(=O)O)[C@H]1CC[C@H]2[C@@H]3CC[C@@H]4C[C@H](O)CC[C@]4(C)[C@H]3CC[C@]12C [LITHOCHOLIC ACID]	–	–	IC50 (E. coli GroEL/ES [3]): 16 µM
Cc1cc2nc3c(=O)[nH]c(=O)nc-3n(C[C@H](O)[C@H](O)[C@H](O)COP(=O)(O)O)c2cc1C [RIBOFLAVIN 5'-PHOSPHATE SODIUM]	80	–	–
Cc1ccc(C(=O)Nc2ccc(S(=O)(=O)O)c3cc(S(=O)(=O)O)cc(S(=O)(=O)O)c23)cc1NC(=O)c1cccc(NC(=O)Nc2cccc(C(=O)Nc3cc(C(=O)Nc4ccc(S(=O)(=O)O)c5cc(S(=O)(=O)O)cc(S(=O)(=O)O)c45)ccc3C)c2)c1 [SURAMIN]	–	16	–
